From ChEMBL document CHEMBL4828734, “Discovery of High-Affinity Inhibitors of the BPTF Bromodomain” (J Med Chem, 2021) come the findings set out here.

pKd: −log10 of the molar value.

The target in the assay is Nucleosome-remodeling factor subunit BPTF (Homo sapiens, UniProt Q12830). As to the kind of experiment: biochemical.

Consider `Cn1ncc(N[C@@H]2CCNC2)c(Cl)c1=O`, for which the negative logarithm of the Kd (pKd) (usually the Kd on a negative log10 scale, so that one unit is a factor of ten) is 5.22.
